Reference: patent publication US6936585B2, “Corticotropin releasing factor 2 receptor agonists” (priority 2002, dated 2005)
pEC50: −log10 of the molar value.

Assays:
[1] = target: T1, CRF1R (Homo sapiens, UniProt P34998); assay: CRF1R agonist activation (EC50 / Emax), called comparative CRF binding; type: cell-based; details: for pEC50: CRF1R EC50; for Emax: read-out: CRF1R Emax
T1 sequence (P34998 24-415): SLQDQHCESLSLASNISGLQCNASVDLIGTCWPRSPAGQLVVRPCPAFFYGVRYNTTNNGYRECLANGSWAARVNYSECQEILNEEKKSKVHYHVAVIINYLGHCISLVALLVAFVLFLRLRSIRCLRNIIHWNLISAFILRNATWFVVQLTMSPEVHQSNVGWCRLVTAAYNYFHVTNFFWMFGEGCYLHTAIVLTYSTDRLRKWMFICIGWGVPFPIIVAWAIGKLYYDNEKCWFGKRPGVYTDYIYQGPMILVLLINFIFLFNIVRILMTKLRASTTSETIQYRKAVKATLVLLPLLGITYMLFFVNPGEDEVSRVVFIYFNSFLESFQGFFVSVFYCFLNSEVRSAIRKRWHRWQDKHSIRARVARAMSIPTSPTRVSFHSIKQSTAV
In short: (§1)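 Agonism at each human CRF receptor subtype is inferred from increased cAMP relative to vehicle, using cells expressing that subtype and either lysate cAMP measurement or a cAMP response element reporter.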

[2] = target: T2, CRF2R (Homo sapiens, UniProt Q13324); assay: CRF2R agonist activation (EC50 / Emax), called comparative CRF binding; type: cell-based; details: for Emax: read-out: CRF2R Emax
T2 sequence (Q13324 1-411): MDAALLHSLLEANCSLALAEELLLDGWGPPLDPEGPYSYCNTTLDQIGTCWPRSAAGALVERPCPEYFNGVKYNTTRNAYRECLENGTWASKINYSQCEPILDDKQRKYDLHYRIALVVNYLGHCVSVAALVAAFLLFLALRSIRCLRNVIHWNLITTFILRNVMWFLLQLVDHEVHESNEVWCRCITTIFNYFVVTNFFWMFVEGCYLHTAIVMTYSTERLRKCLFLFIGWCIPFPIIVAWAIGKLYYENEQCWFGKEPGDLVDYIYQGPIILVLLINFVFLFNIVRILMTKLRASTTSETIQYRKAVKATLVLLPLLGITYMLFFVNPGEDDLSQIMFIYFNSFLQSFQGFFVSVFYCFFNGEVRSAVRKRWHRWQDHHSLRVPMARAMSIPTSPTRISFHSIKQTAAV
In short: as §1

Compound | pEC50 [1] | Emax [1] [%] | pEC50 [2] | Emax [2] [%]
CC[C@H](C)[C@H](NC(=O)[C@@H](NC(=O)[C@H](CC(=O)O)NC(=O)[C@H](CC(C)C)NC(=O)[C@H](CC(C)C)NC(=O)[C@H](CC(C)C)NC(=O)[C@H](CCCNC(=N)N)NC(=O)[C@H](CC(N)=O)NC(=O)[C@H](CC(N)=O)NC(=O)[C@H](C)NC(=O)[C@H](C)NC(=O)[C@H](CCC(N)=O)NC(=O)[C@H](CCC(N)=O)NC(=O)[C@H](CCCCN)NC(=O)[C@H](CCC(=O)O)NC(=O)[C@H](CCCCN)NC(=O)[C@H](CCC(=O)O)NC(=O)[C@H](CCC(N)=O)NC(=O)[C@H](CCCCN)NC(=O)[C@H](CCC(=O)O)NC(=O)[C@@H](NC(=O)[C@H](CCC(=O)O)NC(=O)[C@@H](NC(=O)[C@H](CCSC)NC(=O)[C@H](CCCCN)NC(=O)[C@H](CCCNC(=N)N)NC(=O)[C@H](CC(C)C)NC(=O)[C@H](CC(C)C)NC(=O)[C@H](CC(C)C)NC(=O)[C@H](Cc1ccc(O)cc1)NC(=O)[C@@H]1CCCN1C(=O)[C@H](CC(C)C)NC(=O)[C@H](CC(=O)O)NC(=O)[C@@H](NC(=O)[C@H](CO)NC(=O)[C@@H](NC(=O)[C@@H]1CCCN1C(=O)[C@@H]1CCCN1C(=O)CNC(=O)[C@@H]1CCC(=O)N1)[C@@H](C)CC)[C@@H](C)CC)[C@@H](C)CC)[C@@H](C)CC)[C@@H](C)O)C(N)=O [compound 203] | 7.12 | 86 | 8.28 | 94
CC[C@H](C)[C@H](NC(=O)[C@@H](NC(=O)[C@H](CC(=O)O)NC(=O)[C@H](CC(C)C)NC(=O)[C@H](CC(C)C)NC(=O)[C@H](CC(C)C)NC(=O)[C@H](CCCNC(=N)N)NC(=O)[C@H](CC(N)=O)NC(=O)[C@H](CC(N)=O)NC(=O)[C@H](C)NC(=O)[C@H](C)NC(=O)[C@H](CCC(N)=O)NC(=O)[C@H](CCC(N)=O)NC(=O)[C@H](CCCCN)NC(=O)[C@H](CCC(=O)O)NC(=O)[C@H](CCCCN)NC(=O)[C@H](CCC(=O)O)NC(=O)[C@H](CCC(N)=O)NC(=O)[C@H](CCCCN)NC(=O)[C@H](CCC(=O)O)NC(=O)[C@@H](NC(=O)[C@H](CCC(=O)O)NC(=O)[C@@H](NC(=O)[C@H](CC(C)C)NC(=O)[C@@H](NC(=O)[C@H](CCCNC(=N)N)NC(=O)[C@H](CC(C)C)NC(=O)[C@H](CC(C)C)NC(=O)[C@H](Cc1ccc(O)cc1)NC(=O)[C@@H](NC(=O)[C@@H]1CCCN1C(=O)[C@H](CC(C)C)NC(=O)[C@H](CC(=O)O)NC(=O)[C@@H](NC(=O)[C@H](CO)NC(=O)[C@@H](NC(=O)[C@@H]1CCCN1C(=O)[C@@H]1CCCN1C(=O)CNC(=O)[C@@H]1CCC(=O)N1)[C@@H](C)CC)[C@@H](C)CC)[C@@H](C)O)[C@@H](C)CC)[C@@H](C)CC)[C@@H](C)CC)[C@@H](C)O)C(N)=O [compound 252] | 6.64 | 100 | 7.65 | 100
CC[C@H](C)[C@H](NC(=O)[C@@H](NC(=O)[C@H](CC(=O)O)NC(=O)[C@H](CC(C)C)NC(=O)[C@H](CC(C)C)NC(=O)[C@H](CC(C)C)NC(=O)[C@H](CCCNC(=N)N)NC(=O)[C@H](CC(N)=O)NC(=O)[C@H](CC(N)=O)NC(=O)[C@H](C)NC(=O)[C@H](C)NC(=O)[C@H](CCC(N)=O)NC(=O)[C@H](CCC(N)=O)NC(=O)[C@H](CCCCN)NC(=O)[C@H](CCC(=O)O)NC(=O)[C@H](CCCCN)NC(=O)[C@H](CCC(=O)O)NC(=O)[C@H](CCC(N)=O)NC(=O)[C@H](CCCCN)NC(=O)[C@H](CCC(=O)O)NC(=O)[C@@H](NC(=O)[C@H](CCC(=O)O)NC(=O)[C@@H](NC(=O)[C@H](CCSC)NC(=O)[C@H](CCCCN)NC(=O)[C@H](CCCNC(=N)N)NC(=O)[C@H](CC(C)C)NC(=O)[C@H](CC(C)C)NC(=O)[C@H](CC(C)C)NC(=O)[C@@H](NC(=O)[C@@H]1CCCN1C(=O)[C@H](CC(C)C)NC(=O)[C@H](CC(=O)O)NC(=O)[C@@H](NC(=O)[C@H](CO)NC(=O)[C@@H](NC(=O)[C@@H]1CCCN1C(=O)[C@@H]1CCCN1C(=O)CNC(=O)[C@@H]1CCC(=O)N1)[C@@H](C)CC)[C@@H](C)CC)[C@@H](C)CC)[C@@H](C)CC)[C@@H](C)CC)[C@@H](C)O)C(N)=O [compound 35] |  | 74 |  | 88
CC[C@H](C)[C@H](NC(=O)[C@@H](NC(=O)[C@H](CC(=O)O)NC(=O)[C@H](CC(C)C)NC(=O)[C@H](CC(C)C)NC(=O)[C@H](CC(C)C)NC(=O)[C@H](CCCNC(=N)N)NC(=O)[C@H](CC(N)=O)NC(=O)[C@H](CC(N)=O)NC(=O)[C@H](C)NC(=O)[C@H](C)NC(=O)[C@H](CCC(N)=O)NC(=O)[C@H](CCC(N)=O)NC(=O)[C@H](CCCCN)NC(=O)[C@H](CCC(=O)O)NC(=O)[C@H](CCCCN)NC(=O)[C@H](CCC(=O)O)NC(=O)[C@H](CCC(N)=O)NC(=O)[C@H](CCCCN)NC(=O)[C@H](CCC(=O)O)NC(=O)[C@@H](NC(=O)[C@H](CCC(=O)O)NC(=O)[C@@H](NC(=O)[C@H](CCSC)NC(=O)[C@H](CCCCN)NC(=O)[C@H](CCCNC(=N)N)NC(=O)[C@H](CC(C)C)NC(=O)[C@H](CC(C)C)NC(=O)[C@H](CCC(N)=O)NC(=O)[C@H](C)NC(=O)[C@@H]1CCCN1C(=O)[C@H](CC(C)C)NC(=O)[C@H](CC(=O)O)NC(=O)[C@@H](NC(=O)[C@H](CO)NC(=O)[C@@H](NC(=O)[C@@H]1CCCN1C(=O)[C@@H]1CCCN1C(=O)CNC(=O)[C@@H]1CCC(=O)N1)[C@@H](C)CC)[C@@H](C)CC)[C@@H](C)CC)[C@@H](C)CC)[C@@H](C)O)C(N)=O [compound 211] |  | 37 |  | 100
CC[C@H](C)[C@H](NC(=O)[C@@H](NC(=O)[C@H](C)NC(=O)[C@H](CC(C)C)NC(=O)[C@H](CC(C)C)NC(=O)[C@H](CC(C)C)NC(=O)[C@H](C)NC(=O)[C@H](CC(N)=O)NC(=O)[C@H](CC(N)=O)NC(=O)[C@H](C)NC(=O)[C@H](C)NC(=O)[C@H](CCC(N)=O)NC(=O)[C@H](CCC(N)=O)NC(=O)[C@H](CCCCN)NC(=O)[C@H](CCC(=O)O)NC(=O)[C@H](CCCCN)NC(=O)[C@H](CCC(=O)O)NC(=O)[C@H](CCC(N)=O)NC(=O)[C@H](CCCCN)NC(=O)[C@H](CCC(=O)O)NC(=O)[C@@H](NC(=O)[C@H](CCC(=O)O)NC(=O)[C@@H](NC(=O)[C@@H](NC(=O)[C@H](CCC(=O)O)NC(=O)[C@H](CCCNC(=N)N)NC(=O)[C@H](CC(C)C)NC(=O)[C@H](CC(C)C)NC(=O)[C@H](CCC(N)=O)NC(=O)[C@H](Cc1ccccc1)NC(=O)[C@@H]1CCCN1C(=O)[C@H](CC(C)C)NC(=O)[C@H](CC(=O)O)NC(=O)[C@@H](NC(=O)[C@H](CO)NC(=O)[C@@H](NC(=O)[C@@H]1CCCN1C(=O)[C@@H]1CCCN1C(=O)CNC(=O)[C@@H]1CCC(=O)N1)[C@@H](C)CC)[C@@H](C)CC)C(C)C)[C@@H](C)CC)[C@@H](C)CC)[C@@H](C)O)C(N)=O [compound 359] |  | 100 |  | 100
